Measured values as given in US20190085024A1, “Alpha-Ketoamide Inhibitors Of Cysteine Proteases” (Phelix Therapeutics, priority 2017, published 2019).

Protein sequences, listed by entry. Tags and fused reporters are not part of them. Residues count along the entry.
UniProt P07711, 114-333 limits assumed: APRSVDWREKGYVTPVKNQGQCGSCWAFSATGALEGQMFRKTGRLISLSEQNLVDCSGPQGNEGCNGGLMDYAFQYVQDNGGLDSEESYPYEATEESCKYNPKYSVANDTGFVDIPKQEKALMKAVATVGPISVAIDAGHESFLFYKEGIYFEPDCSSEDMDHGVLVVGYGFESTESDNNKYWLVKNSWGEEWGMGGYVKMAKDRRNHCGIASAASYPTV

How the values were obtained:
Cathepsin L = Cathepsin L (Homo sapiens, UniProt P07711); assay: Cathepsin L enzyme assay; settings: read-out: Cat L; Ki by Morrison equation; pH 5.5, substrate Z-Phe-Arg-Amc
Method: (§1) Purified peptide was dissolved in DMSO to a concentration of 10 mM then further diluted to 100 μM in DMSO. Stock plates were established with inhibitors at ten concentrations with top concentrations of 10 mM, 1 mM, 100 μM, or 10 μM which were then subsequently halved in DMSO down to bottom concentrations of 9.8 μM, 0.98 μM, 98 nM, or 9.8 nM respectively in DMSO. Alternatively, the stock plate was established with a top inhibitor concentration of 100 μM diluted by thirds with ten concentrations down to a bottom concentration of 65.1 nM in DMSO. Two wells contained DMSO only for controls.
Enzyme was dissolved to 3 nM in 50 mM Sodium Acetate Buffer (pH 5.5), 2.5 mM EGTA, 0.01% Triton X-100, and 5 mM DTT. Substrate, Z-Phe-Arg-Amc, was diluted to 50 μM in buffer. Enzyme/Buffer solution was aliquoted 267 uL per well in one row (12 wells). Using a multichannel pipette 3 μL inhibitor was taken from the stock plate and added to each well, a 1:100 dilution resulting in ten concentrations of inhibitor and two controls, 0 μM inhibitor and dead enzyme. […]
(§2) GraphPad Prism was used for all data analysis. […] Velocity (RFU/sec) was calculated from a straight line fit of the straight portion of the curve. […] Data was then plotted as velocity (μM/sec) vs. inhibitor concentration and analyzed using the Morrison equation that was standard in GraphPad Prism to calculate a Ki.

Calpain = Calpain enzyme assay; settings: read-out: Calpain; Ki by Morrison equation; pH 7.5, 5 mM CaCl2
Method: as §1
Enzyme was dissolved to 25 nM in 50 mM Tris Buffer (pH 7.5), 100 mM NaCl, 1 mM EGTA, 0.015% Brij-35, and 5 mM DTT. Substrate, H-Glu(Edans)-Pro-Leu-Phe-Ala-Glu-Arg-Lys(Dabcyl)-OH, was diluted to 5 μM in buffer with enzyme. Enzyme/Buffer/Substrate solution was aliquoted 267 uL per well in one row (12 wells). […] Two controls were measured, 0 μM inhibitor and no calcium (effectively dead enzyme). […]
as §2

Collagen = assay: Fibrosis-Sirius Red Collagen Assay; type: cell-based; settings: read-out: Fibrosis-Sirius Red Collagen Assay
SMA = assay: Fibrosis-SMA Elisa; type: cell-based; settings: read-out: Fibrosis-SMA Elisa
Cathepsin B = Cathepsin B (Homo sapiens, UniProt P07858); assay: Cathepsin B enzyme assay; settings: read-out: Cat B; Ki by Morrison equation; pH 6.0, substrate Z-Phe-Arg-Amc

CC[C@H](C)C(NC(=O)[C@H](CC(C)C)NC(=O)OCc1ccccc1)C(=O)C(=O)NCC(=O)N[C@@H](Cc1ccc2ccccc2c1)C(=O)N(C)C (some centres unmarked)
Ki (Cathepsin L): 0.2 nM | Ki (Calpain): 5.39 nM | IC50 (Collagen): 2900 nM | IC50 (SMA): 1100 nM | Ki (Cathepsin B): 10.9 nM
